Measurements from patent publication US20250197405A1, “HETEROAROMATIC COMPOUNDS AS PKMYT1 INHIBITORS AND USE THEREOF” (INSILICO MEDICINE IP LIMITED, priority 2022, published 2025).

Amino acid sequences for entries named in this document (tags omitted).
UniProt Q99640, whole entry: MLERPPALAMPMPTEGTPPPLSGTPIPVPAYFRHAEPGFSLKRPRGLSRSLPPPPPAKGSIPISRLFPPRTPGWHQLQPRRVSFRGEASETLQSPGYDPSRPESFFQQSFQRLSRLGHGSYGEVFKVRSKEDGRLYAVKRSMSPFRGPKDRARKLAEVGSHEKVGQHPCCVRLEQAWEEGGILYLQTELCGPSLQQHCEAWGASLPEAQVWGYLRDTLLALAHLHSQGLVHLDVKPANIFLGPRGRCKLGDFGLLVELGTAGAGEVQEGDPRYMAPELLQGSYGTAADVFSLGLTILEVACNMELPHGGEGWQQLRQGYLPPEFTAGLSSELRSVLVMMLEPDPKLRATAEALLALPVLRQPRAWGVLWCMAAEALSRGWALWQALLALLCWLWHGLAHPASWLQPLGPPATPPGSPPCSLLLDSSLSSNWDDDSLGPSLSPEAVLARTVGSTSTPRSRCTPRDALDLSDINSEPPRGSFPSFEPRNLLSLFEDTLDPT

Target: PKMYT1 (Homo sapiens (Human), UniProt Q99640)
Test: PKMYT1 HTRF assay
Assay type: binding
Details: Tracer 178, GST-Tb, compound 10 μM to 0.5 nM

Molecule `Cc1ccc(O)c(C)c1-n1c(N)c(C(N)=O)c2c(=O)n(C3CC3)c(C)cc21` has an IC50 of 3.9 nM.
